Reference: patent US9744173B2, “2-amino 6-methyl-4,4a,5,6-tetrahydropyrano[3,4-d][1,3]thiazin-8a(8H)-yl-1,3-thiazol-4-yl amides” (Pfizer Inc., priority 2014, dated 2017)

Protein sequences, listed by entry. Tags and fused reporters are not part of them. Residues count along the entry.
UniProt P56817, 46-457 limits assumed: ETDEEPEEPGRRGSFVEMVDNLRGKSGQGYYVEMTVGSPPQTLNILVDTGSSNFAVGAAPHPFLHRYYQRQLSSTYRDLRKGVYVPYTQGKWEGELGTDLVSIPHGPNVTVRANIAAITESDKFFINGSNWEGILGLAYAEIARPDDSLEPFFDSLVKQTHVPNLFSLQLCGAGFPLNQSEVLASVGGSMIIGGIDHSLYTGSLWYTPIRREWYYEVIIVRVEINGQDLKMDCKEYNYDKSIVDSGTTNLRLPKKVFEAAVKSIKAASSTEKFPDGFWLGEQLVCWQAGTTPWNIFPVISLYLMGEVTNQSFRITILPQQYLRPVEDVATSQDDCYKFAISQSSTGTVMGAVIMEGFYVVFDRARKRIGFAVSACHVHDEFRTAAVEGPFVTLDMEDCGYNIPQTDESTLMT

Key:
[1] = GSH Incubation Assay; type: in vitro ADME; conditions: incubation in human liver microsomes in the presence of GSH
[2] = biological target: BACE1 (Homo sapiens (Human), UniProt P56817); test: BACE1 Cell-Free Assay (fluorescence polarization); type: biochemical; conditions: read-out: BACE1 Cell Free IC50; Table 4
[3] = pKa; type: physicochemical; conditions: Measurement determined at Analyza
[4] = HLM Clint (clearance in human liver microsomes); type: in vitro ADME
[5] = system: sAPPβ in H4 human neuroglioma cells over-expressing the wild-type human APP695; test: sAPPβ Whole-Cell Assay (WCA); type: cell-based; conditions: read-out: sAPPβ Whole Cell IC50, 18 h

Question: With C[C@H]1C[C@H]2CSC(N)=N[C@@]2(c2cc(NC(=O)c3ccc(C#N)cn3)cs2)CO1 as the compound, how does the “formation of GSH adducts” value [1] read?
Answer: Its value is “showed the formation of chemical adducts”.

Question: With C[C@H]1C[C@H]2CSC(N)=N[C@@]2(c2ncc(NC(=O)c3ccc(OC(F)F)cn3)s2)CO1 as the compound, how does the IC50 [2] read?
Answer: Its IC50 is > 100 µM.

Question: And the pKa [3]?
Answer: Its pKa is 7.

Question: And the “HLM CLint” value [4]?
Answer: Its value is <0.48 L/h/kg.

Question: Which results are given for C[C@H]1C[C@H]2CSC(N)=N[C@@]2(c2cc(NC(=O)c3ccc(OC(F)F)cn3)ccc2F)CO1 [Comparator 4]?
Answer: IC50 [5]: < 0.001 µM; pKa [3]: 8.2; HLM CLint [4]: 0.498 L/h/kg
